Laboratory results reported in patent US20070059687A1, “Process for evaluating phagocytotic function and use thereof” (priority 2001, published 2007).

Protein sequences, listed by entry. Tags and fused reporters are not part of them. Residues count along the entry.
UniProt P06873, 106-384: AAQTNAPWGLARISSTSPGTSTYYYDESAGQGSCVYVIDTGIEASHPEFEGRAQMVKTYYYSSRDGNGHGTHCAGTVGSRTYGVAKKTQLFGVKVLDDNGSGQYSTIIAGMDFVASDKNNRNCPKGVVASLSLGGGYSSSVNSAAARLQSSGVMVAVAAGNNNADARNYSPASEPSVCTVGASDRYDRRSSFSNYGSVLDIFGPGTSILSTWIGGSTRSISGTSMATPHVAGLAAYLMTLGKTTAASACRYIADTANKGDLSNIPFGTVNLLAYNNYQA

Biological target: proteinase K (Parengyodontium album, UniProt P06873)
Settings: protease 0.2 unit/ml

`O=S(=O)(F)Cc1ccccc1` [PMSF, phenylmethylsulfonylfluoride] was tested, and the “PMSF concentration at which deterioration of morphology of the leukocytes was completely suppressed” value was no less than 0.1 mmol/l and the “PMSF concentration at which effects were found” value (leukocyte morphology) was no less than 10 µmol/L.
